{"sequences": {"note": "The chains behind the UniProt entries cited, without tags or fusion partners.", "UniProt P13612, whole entry, looked up": "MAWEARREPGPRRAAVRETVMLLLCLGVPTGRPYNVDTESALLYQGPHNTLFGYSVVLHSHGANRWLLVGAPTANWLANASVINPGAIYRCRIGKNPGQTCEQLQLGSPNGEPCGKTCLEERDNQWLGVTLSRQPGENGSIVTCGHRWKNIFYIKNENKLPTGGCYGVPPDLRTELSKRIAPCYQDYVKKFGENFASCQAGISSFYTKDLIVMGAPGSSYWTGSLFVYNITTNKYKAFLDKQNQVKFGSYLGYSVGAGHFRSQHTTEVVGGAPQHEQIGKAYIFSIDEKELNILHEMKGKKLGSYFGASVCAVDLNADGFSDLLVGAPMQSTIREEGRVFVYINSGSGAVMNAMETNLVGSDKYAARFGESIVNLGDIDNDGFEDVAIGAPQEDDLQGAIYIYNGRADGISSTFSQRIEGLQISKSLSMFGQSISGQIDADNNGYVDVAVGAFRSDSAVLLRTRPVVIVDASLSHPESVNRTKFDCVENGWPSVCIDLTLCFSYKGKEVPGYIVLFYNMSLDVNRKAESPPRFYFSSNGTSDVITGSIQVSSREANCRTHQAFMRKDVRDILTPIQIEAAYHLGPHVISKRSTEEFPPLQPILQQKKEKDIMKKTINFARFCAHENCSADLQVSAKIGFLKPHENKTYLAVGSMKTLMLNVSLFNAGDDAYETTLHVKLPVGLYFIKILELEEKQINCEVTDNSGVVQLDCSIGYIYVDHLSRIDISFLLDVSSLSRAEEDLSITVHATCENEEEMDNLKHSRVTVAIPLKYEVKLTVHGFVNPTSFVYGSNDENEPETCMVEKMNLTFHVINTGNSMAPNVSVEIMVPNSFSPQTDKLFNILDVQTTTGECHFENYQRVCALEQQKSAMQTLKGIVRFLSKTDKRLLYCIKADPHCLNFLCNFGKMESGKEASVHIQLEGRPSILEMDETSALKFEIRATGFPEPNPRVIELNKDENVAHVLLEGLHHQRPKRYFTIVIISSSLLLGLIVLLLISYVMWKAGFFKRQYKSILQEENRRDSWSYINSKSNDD"}, "source": "PubChem BioAssay AID529", "about": "(NMMLSC, 2006)", "note": "Only a part is listed here, and it is no random draw. Some of these compounds have results that are not shown, active ones among them. Results filed as inconclusive are left out. Calls of active or inactive are those of the source.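 Rule for the calls: active = inhibition above 50%; inconclusive = compound itself fluorescent, judged against control cell fluorescence; inactive = the rest.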"}
{"target": "Integrin alpha-4 (Homo sapiens) (UniProt P13612)", "assay": "inhibitors of LDV-FITC binding to Mn2+-activated VLA-4, primary screen, Jurkat cells (AID 529);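 note: 0% = Mn2+ stimulated cells lacking compound and 100% = ligand binding without Mn2+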", "settings": "LDV-FITC binding with Mn2+, flow cytometry, hits give high values, screened at 10 µM (by protocol), 100% = Mn2+-driven binding gain fully reversed"}
{"smiles": "O=C(OC1CN2CCC1CC2)C(CO)(c1ccccc1)c1ccccc1", "note": "(stereo unspecified)", "inhibition": "inactive: -12.5%"}
